From ChEMBL document CHEMBL4138091, “Quinazoline based α1-adrenoreceptor antagonists with potent antiproliferative activity in human prostate cancer cell lines” (Eur J Med Chem, 2017) come the findings set out here.

Protein sequences, listed by entry. Tags and fused reporters are not part of them.
UniProt P35368, whole entry: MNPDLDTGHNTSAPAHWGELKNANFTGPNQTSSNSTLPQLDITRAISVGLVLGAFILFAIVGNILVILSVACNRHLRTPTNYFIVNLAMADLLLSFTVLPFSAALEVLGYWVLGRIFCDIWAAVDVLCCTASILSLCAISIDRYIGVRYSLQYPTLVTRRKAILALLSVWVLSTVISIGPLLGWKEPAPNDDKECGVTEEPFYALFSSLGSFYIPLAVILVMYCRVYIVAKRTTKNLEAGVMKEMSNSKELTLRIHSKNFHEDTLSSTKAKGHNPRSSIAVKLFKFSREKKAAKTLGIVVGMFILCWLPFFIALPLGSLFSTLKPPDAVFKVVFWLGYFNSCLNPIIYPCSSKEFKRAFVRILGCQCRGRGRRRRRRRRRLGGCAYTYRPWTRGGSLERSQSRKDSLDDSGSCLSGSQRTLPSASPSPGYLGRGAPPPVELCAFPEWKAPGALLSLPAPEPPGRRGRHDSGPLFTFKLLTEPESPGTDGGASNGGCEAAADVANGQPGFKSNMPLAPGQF

This assay has as its target Alpha-1B adrenergic receptor (Homo sapiens, UniProt P35368). Kind of assay: Displacement of [3H]prazosin from human alpha1B adrenoceptor expressed in CHO cell membranes after 30 mins.

SMILES strings stand for the structures. pKi: −log10 of the molar value.

As to `COc1cc2nc(N3CCN(C(=O)C4COc5ccccc5O4)CC3)nc(N)c2cc1OC` (stereo unspecified) [DOXAZOSIN], the pKi is 9.20.
